Binding of CDR-mutated scFvs to a peptide of the spike HR2 region

Target: peptide PDVDLGDISGINAS, taken from heptad repeat 2 (HR2) of SARS-CoV-2 spike.

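Phage display of a naive human antibody library on the peptide gave the parent. The library (AAYL50) carries one to three amino acid substitutions per variant, with no insertions or deletions. In AlphaSeq, yeast of one mating type display the scFv and yeast of the other type display the target. Binding brings cells together so that they mate, and sequencing counts the barcode pairs among the diploids. The ratio of observed to expected reads was calibrated, replicate by replicate, on BCL2-family standards whose Kd was known from biolayer interferometry. The assay was run in three technical replicates.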

Each scFv is VH, the linker GGGGSGGGGSGGGGS, VL, as in the parent Ab-14, and differs from it in the CDRs of the light chain only.
VH: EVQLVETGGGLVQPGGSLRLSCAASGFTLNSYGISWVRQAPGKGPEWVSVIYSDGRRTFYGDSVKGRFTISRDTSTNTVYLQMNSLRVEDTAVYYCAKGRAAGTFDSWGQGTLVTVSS
VL: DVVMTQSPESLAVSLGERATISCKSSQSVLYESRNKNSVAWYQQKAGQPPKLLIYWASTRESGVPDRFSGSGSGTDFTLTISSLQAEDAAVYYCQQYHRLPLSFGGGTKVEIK

Positions count from residue 1 of the parent VL; L30I puts I in place of L.
The read-out is the apparent dissociation constant on a log10 scale (nM): the lower, the stronger.
An entry "nd" has no value in the source: the pair was not observed among the diploids in that replicate. This suggests poor binding but is not conclusive.

For L30I+K36F+R60Q, the assay gave 4.24, 3.47, 4.94 (controls 3 of 9).
For V39G+A40I+S103L, the assay gave nd, nd, nd (controls 0 of 9).
For E32Y+S33Q+R99C, the assay gave 2.06, 1.90, 2.30 (controls 1 of 9).
For S28L+K36P+L100F, the assay gave 2.70, 2.18, 2.45 (controls 4 of 9).
For S25T+E32P+L102Y, the assay gave 1.77, 1.90, 2.06 (controls 5 of 9).
For Y31H+N35L+L100Y, the assay gave 0.43, 0.95, 0.61 (controls 1 of 9).
For L30K+N35S+Q95M, the assay gave nd, nd, nd (controls 3 of 9).
For Q27S+V29Q+V39W, the assay gave nd, 4.66, nd (controls 1 of 9).
For V29W+N37D+S58V, the assay gave 3.14, 2.85, 3.05 (controls 6 of 9).
For N35Q+A40L+R99P, the assay gave 5.01, nd, nd (controls 6 of 9).
For V39W+A57E, the assay gave 3.33, 2.57, 2.02 (controls 1 of 9).
For W56V+Y97W+R99Q, the assay gave nd, 4.29, nd (controls 0 of 9).
For S38C+H98F, the assay gave 1.62, 1.42, 1.52 (controls 2 of 9).
For V29Y+E32R+R60T, the assay gave 5.78, 3.42, nd (controls 2 of 9).
For S25Q+R99E+L102A, the assay gave 0.45, 0.51, 0.85 (controls 0 of 9).
For R34H+Q95W+R99L, the assay gave 0.92, 0.97, 0.99 (controls 2 of 9).
For V39Y+S58D+L102S, the assay gave nd, nd, nd (controls 0 of 9).
For R34H+V39I+S103F, the assay gave 0.12, 0.45, 0.36 (controls 0 of 9).
For V39K+A40R, the assay gave nd, nd, nd (controls 0 of 9).
For K36C+N37T+P101V, the assay gave nd, nd, nd (controls 0 of 9).
For L30W+S58A+Q96K, the assay gave 6.19, 3.85, 3.10 (controls 3 of 9).
For S28P+Q95D+R99Y, the assay gave nd, nd, nd (controls 0 of 9).
For S62C+Q95S+L100S, the assay gave nd, nd, nd (controls 0 of 9).
For S33A+H98E+R99A, the assay gave 2.01, 2.09, 2.56 (controls 0 of 9).
For V39H+R60P+S62Y, the assay gave 3.49, nd, 5.69 (controls 2 of 9).
For S26V+R34P+S62N, the assay gave 0.78, 0.87, 0.74 (controls 5 of 9).
For Q27D+V29R+E61D, the assay gave 4.79, 5.27, nd (controls 2 of 9).
For V29H+R60L+H98N, the assay gave nd, nd, nd (controls 0 of 9).
For S26R+A40E, the assay gave nd, nd, nd (controls 1 of 9).
For N37K+S58G+P101Y, the assay gave nd, nd, nd (controls 0 of 9).
For Q27A+V29C+A40W, the assay gave 4.65, nd, nd (controls 3 of 9).
For S26E+E32M+R60H, the assay gave 1.34, 1.58, 2.18 (controls 0 of 9).
For N37W+L100M, the assay gave 1.30, 1.10, 1.17 (controls 2 of 9).
For S26H+R34K, the assay gave 1.06, 1.42, 1.36 (controls 0 of 9).
For K24D+S26D+R99S, the assay gave 5.03, 3.74, nd (controls 0 of 9).
For S28A+N37H+V39N, the assay gave nd, nd, nd (controls 0 of 9).
For Y31A+Q95N+H98E, the assay gave nd, 3.92, nd (controls 1 of 9).
For K24V+N35P+Y97A, the assay gave 1.89, 2.55, 2.18 (controls 0 of 9).
For S38K+L100I+S103I, the assay gave nd, nd, nd (controls 1 of 9).
For Y31R+H98Y+P101D, the assay gave 2.67, 2.66, 3.49 (controls 2 of 9).
For E32M+S33Y+K36M, the assay gave 2.37, 2.57, 2.41 (controls 0 of 9).
For K24L+R60M+Q95E, the assay gave nd, nd, nd (controls 0 of 9).
For S25F+S28G+L100C, the assay gave -0.16, 0.24, -0.03 (controls 4 of 9).
For S26C+V39S+L100K, the assay gave 3.23, nd, 4.15 (controls 2 of 9).
For L30F+E61S+P101I, the assay gave 1.37, 1.47, 1.49 (controls 0 of 9).
For K24S+V39M+W56R, the assay gave 1.61, 1.64, 1.95 (controls 8 of 9).
For S38V+Q96R+L100A, the assay gave nd, nd, nd (controls 1 of 9).
For R34S+V39G+P101N, the assay gave nd, nd, nd (controls 0 of 9).
For Y31A+K36I+E61R, the assay gave 1.38, 1.48, 1.56 (controls 0 of 9).
For V29I+R99M+S103E, the assay gave nd, nd, nd (controls 0 of 9).

The first 7 variants above that were never detected:

With V39G+A40I+S103L the result was nd, nd, nd (controls 0 of 9).
With L30K+N35S+Q95M the result was nd, nd, nd (controls 3 of 9).
With V39Y+S58D+L102S the result was nd, nd, nd (controls 0 of 9).
With V39K+A40R the result was nd, nd, nd (controls 0 of 9).
With K36C+N37T+P101V the result was nd, nd, nd (controls 0 of 9).
With S28P+Q95D+R99Y the result was nd, nd, nd (controls 0 of 9).
With S62C+Q95S+L100S the result was nd, nd, nd (controls 0 of 9).

As a blank, each scFv also met three strains without target: over library AAYL50, 18% of these pairings were detected, typically at 4.19 and seldom below 2.99. Also given: how often the same scFv was detected with the empty control strains.
In this assay the parent's reference entry averaged 0.65; its copy inside this library read 1.68.

Source: Engelhart et al. 2022 (doi:10.1038/s41597-022-01779-4), MIT Lincoln Laboratory and A-Alpha Bio; data file from the FLAb repository.